## AlphaSeq binding of Ab-14 heavy chain variants to a spike HR2 peptide

Data: MIT Lincoln Laboratory AlphaSeq set, Li et al. 2023, doi:10.1038/s41467-023-39022-2, as distributed in FLAb.

All variants were tested on one target, the spike HR2 peptide PDVDLGDISGINAS (SARS-CoV-2).

The variants keep the light chain, the linker and the frameworks of Ab-14 (scFv order VH, a (GGGGS)3 linker, VL).
VH: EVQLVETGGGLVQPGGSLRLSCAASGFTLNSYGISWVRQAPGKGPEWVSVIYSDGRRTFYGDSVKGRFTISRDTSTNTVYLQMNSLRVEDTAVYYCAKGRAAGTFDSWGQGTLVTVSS
VL: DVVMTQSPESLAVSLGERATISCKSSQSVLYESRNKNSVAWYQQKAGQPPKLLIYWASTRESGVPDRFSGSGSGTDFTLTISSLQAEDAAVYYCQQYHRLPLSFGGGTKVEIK

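These sequences belong to a second round, designed from the earlier measurements on random variants of the parent. Several design methods are mixed in this list. The assay is AlphaSeq: two haploid yeast populations carry antibody and antigen on their surface. The frequency of each diploid, read from paired DNA barcodes, reflects how well the two displayed proteins bind. The ratio of observed to expected reads was calibrated, replicate by replicate, on BCL2-family standards whose Kd was known from biolayer interferometry. The assay was run in six technical replicates.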

The parent's heavy chain CDRs are GFTLNSYGIS, VIYSDGRRTFYGDSVK, GRAAGTFDS; each variant's own CDRs replace them letter for letter. Affinities are written as log10 Kd with Kd in nM; a lower number is a better binder. A mean of the replicates is given; it leaves out those without a signal. Where no diploid with the target was found in any replicate, the entry reads "nd": below detection, most likely a poor binder, though not proof of it.

Variant GFSLNSYGIS, VIYADGRRTYYLDSVK, GRNAGTFDS showed -0.23 (6 of 6 replicates).
Variant GFTLNSYGIS, VIYSDGQRTFYADSVK, GRVAGTFDL showed 0.48 (6 of 6 replicates).
Variant GFSLNSYGIS, VIYSDGRRTFYGDSVK, GRAAATFDQ showed nd (0 of 6 replicates).
Variant GFTLESYGIS, VIYSDGRRTFYKDSVK, GRTAGTFDS showed 0.96 (6 of 6 replicates).
Variant GFTLNEYGIS, VIYSDGRRTFYGDSVK, GRFAGTFDE showed 0.61 (6 of 6 replicates).
Variant GFTLNSYGIS, VIYSDGRRTFYSDSVK, GEAAGIFDT showed 1.33 (6 of 6 replicates).
Variant GFDLQEYGIS, VIYADGLRSMVTNSVK, GNSGGMVLV showed nd (0 of 6 replicates).
Variant GFDLNSYGIS, VIYSDGRRTFYVDSVK, GQAAGTFDQ showed 0.94 (3 of 6 replicates).
Variant GFNLDEYGIS, VIYADGRRTFYSDSVK, GEAAGTFDI showed -0.22 (6 of 6 replicates).
Variant KFTLNEYGIS, VIYSDGRRTFYGDSVK, GRHAGTFDS showed 1.13 (3 of 6 replicates).
Variant GFDLNEYGIS, VIYADGRRTFYSDSVK, GAVAGTFDV showed -0.31 (6 of 6 replicates).
Variant GFDLDEYGIS, VIYADGMRTAYIDSVK, GEVAGTFDL showed -0.21 (6 of 6 replicates).
Variant GFTLNQYGIS, VIYSDGRRTFYSDSVK, GREAGTFDT showed -0.31 (6 of 6 replicates).
Variant GFDLNSYGIS, VIYSDGRRTFYSDSVK, GKTAGTFDS showed -0.01 (6 of 6 replicates).
Variant GFTLDSYGIS, VIYSDGQRTFYGDSVK, GRAAGTFDR showed 1.90 (6 of 6 replicates).
Variant GFDLNSYGIS, VIYSDGRRTFYDDSVK, GQAAGTFDS showed 0.42 (6 of 6 replicates).
Variant GFTLNSYGIS, VIYSDGMRTFYADSFK, WRAAGTFDS showed nd (0 of 6 replicates).
Variant GFDLNEFGIS, VIYADGLQTFYTDNVK, GGNQGAFVI showed nd (0 of 6 replicates).
Variant GFDLNDYGIS, VIYADGKRTAYIDSVK, GEVAGTFDS showed -0.66 (6 of 6 replicates).
Variant GFDLNEYGIS, VIYADGMRTAYADSVK, GETAGTFDI showed 0.26 (6 of 6 replicates).
Variant GFDLNEYGIS, VIYADGKRTFYADSVK, GTNAGTFDQ showed -0.36 (6 of 6 replicates).

Second part, the sequence after the result:

Read-out 0.50 (6 of 6 replicates), from GFELNMYGIS, VIYSDGRRTFYADSVK, GNAAGTFDS.
Read-out 2.69 (4 of 6 replicates), from GFTLNSYGIS, VIYSDGRRTFYEDSVR, GRAAGTFDS.
Read-out nd (0 of 6 replicates), from GNNLDEYGIS, VIYADGQRSAYAQDVK, GETGDNAMT.
Read-out nd (0 of 6 replicates), from GFTLNEYGIS, VIYSDGRRTFYGDSVK, GRAALTFDL.
Read-out nd (0 of 6 replicates), from GFTLNSYGSS, VIYSDGRRTFYGDSVK, GRAAGTFDT.
Read-out -0.18 (6 of 6 replicates), from GFDLDEYGIS, VIYADGRRTAYADSVK, GENAGTFDI.
Read-out 1.35 (6 of 6 replicates), from GFNLNSYGIS, VIYSDGRRTFYGDSVK, GYAAGTFDS.
Read-out -0.89 (6 of 6 replicates), from GFDLDEYGIS, VIYADGMRTAYIDSVK, GNEAGTFDV.
Read-out nd (0 of 6 replicates), from GFDLDEYGIS, VIYADGRRTFYQDSVK, GQNAGTFDI.
Read-out -0.27 (6 of 6 replicates), from GFDLNEYGIS, VIYADGIRTFYADSVK, GNAAGTFDT.
Read-out 1.07 (6 of 6 replicates), from GFDLNSYGIS, VIYSDGRRTFYGDSVK, GNKAGTFDS.
Read-out 0.08 (6 of 6 replicates), from GFNLNEYGIS, VIYSDGRRTFYADSVK, GRFAGTFDS.
Read-out 0.31 (6 of 6 replicates), from GFSLNSYGIS, VIYSDGRRTFYGDSVK, GKTAGTFDA.
Read-out 0.50 (6 of 6 replicates), from GFNLNSYGIS, VIYSDGRRTFYIDSVK, GKEAGTFDS.
Read-out 1.91 (1 of 6 replicates), from GFDIDEYGIS, VIYADGTRTAVDNSFK, GQMAGFFTN.
Read-out 1.60 (1 of 6 replicates), from GFTLNSYGIS, VIYSDGRRTSYGDSVK, GSAAGTFNS.
Read-out 1.71 (5 of 6 replicates), from GFMLNQYGIS, VIYSDGIRTFYGDSVK, GRAAGTFDS.
Read-out -0.62 (6 of 6 replicates), from GFDLNEYGIS, VIYADGQRTVYADSVK, GNQAGTFDV.
Read-out nd (0 of 6 replicates), from GFTLNSYGIS, VIYSDGRRTFYGDSVK, WRAAGTFDK.
Read-out 1.17 (6 of 6 replicates), from GFTLNSYGIS, VIYSDGRRTFYGDSVK, GNAAGTFDL.
Read-out -0.48 (6 of 6 replicates), from GFGLNEYGIS, VIYSDGRRTFYADSVK, GRTAGTFDS.
Read-out nd (0 of 6 replicates), from GFNLDEYGIS, VIYADGRRTAYKDTVK, GSRTFEFDL.

The parent sequence was in this pool as ten entries: three were never detected, three once, and four in most replicates, with averages from 0.34 to 2.37. Three control strains display no target. For all heavy chain designs, 1% of the pairings with them gave a signal, with a median of 2.08 and one signal in twenty below 0.84, so weak values seen in few replicates may be background. The authors' rule: three or more of the six replicates give a measured affinity, fewer mean a poor binder. A sequence measured in both rounds can read differently, since the two assays cover different ranges.